Measured values: PMC5748281 (ACS Omega, 2017)

Legend:
[1] = system: yeast; conditions: aniline metabolites in yeast; cited from earlier work
[2] = system: S. cerevisiae; assay: DEL; conditions: DEL assay, IC80 concentration

Nc1ccc(O)cc1 [4-aminophenol]
increase in deletion frequencies over untreated control cells [1]: greater than 2 fold

Cc1cc(C(C)(C)C)c(O)c(C(C)(C)C)c1 [BHT, 2,6-di-tert-butyl-4-methyl-phenol]
deletion formation / genotoxicity in words [2]: no significant genotoxicity; also recorded: do not increase the deletion formation

“Also recorded” adds a separate entry of the source.
